1 compound from US20040127395A1 (priority 2002, published 2004) can be followed below.

By UniProt entry, the sequences of proteins in these tests, tags left out.
UniProt Q9H3N8, whole entry: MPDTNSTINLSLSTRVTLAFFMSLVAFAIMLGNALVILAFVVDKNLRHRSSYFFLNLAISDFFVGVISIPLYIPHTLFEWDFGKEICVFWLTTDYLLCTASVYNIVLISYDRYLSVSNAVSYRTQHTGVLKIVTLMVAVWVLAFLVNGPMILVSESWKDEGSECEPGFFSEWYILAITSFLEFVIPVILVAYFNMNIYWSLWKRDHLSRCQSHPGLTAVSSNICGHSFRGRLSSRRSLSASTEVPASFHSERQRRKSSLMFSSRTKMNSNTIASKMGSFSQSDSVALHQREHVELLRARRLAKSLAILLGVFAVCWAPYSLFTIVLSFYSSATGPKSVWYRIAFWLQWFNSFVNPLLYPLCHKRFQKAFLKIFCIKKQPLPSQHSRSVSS

Experiment [1] has as its system mouse bone marrow-derived mast cells. Put plainly: Histamine-induced mast cell chemotaxis in vitro (transwell). The experiment is classed as cell-based. The following applies: inhibition of mast cell chemotaxis.
Experiment [2] deals with human histamine H4 receptor (Homo sapiens, UniProt Q9H3N8). Put plainly: Competition binding assay (3H-histamine) on recombinant human histamine H4 receptor. The following applies: Table 4.

Molecules are shown by their SMILES. pKi: −log10 of the molar value. Where only a bound is given, the exact number is not on record here.

Turning to `c1ccc2[nH]ccc2c1`, the “% Inh 1 μM” value in experiment [1] (compound 1 μM) turned out to be 0%. In experiment [1] (compound 10 μM), the “% Inh 10 μM” value is reported as 0%. The pKi in experiment [2] is below 5.00.
